Patent publication US4871774A, “Medical treatment” (The Boots Company PLC, priority 1987, dated 1989)

Tested on: dopamine reuptake; depletion of brain dopamine
Assay: In vivo inhibition of dopamine reuptake (prevention of α-methyl-m-tyrosine-induced depletion of brain dopamine)
Set-up: species or system rat (Sprague-Dawley)
Settings: Rattus norvegicus, po, 4 h, read-out: ED50 (dose to prevent depletion of brain dopamine by 50%)
Description: (2) In vivo inhibition of dopamine reuptake
An in vivo test for dopamine reuptake inhibition relies on the fact that such reuptake inhibitors can prevent the entry of dopamine-depleting agents into neurons. Depleting agents interfere with the neuronal storage mechanism for dopamine so dopamine leaks into the cytoplasm where it is metabolised by monoamine oxidase. Depleting agents therefore induce a large reduction in brain dopamine levels which can be measured experimentally. Prior treatment with a dopamine reuptake inhibitor reduces the depletion of dopamine levels caused by subsequent administration of a depleting agent such as α-methyl-m-tyrosine.
Male Sprague-Dawley rats (180-220 g: Charles River) were randomly assigned to various treatment groups. […]
Brain samples were thawed and homogenised in 4 volumes of 0.4M perchloric acid containing sodium metabisulphite (0.4 mM) and the internal standard 3,4-dihydroxybenzylamine (0.8 μM). […] Supernatants were removed and their dopamine concentration determined using an HPLC (high pressure liquid chromatography) system with fluorimetric detection.
The percentage prevention (P) of depletion of brain dopamine levels by test compounds is calculated from the formula [formula] […]

Work on `CC(C)CC(N(C)C)C1(c2ccc(Cl)cc2)CCC1.Cl.O` (stereo not shown) [N,N-dimethyl-1-[1-(4-chlorophenyl)cyclobutyl]-3-methylbutylamine hydrochloride monohydrate] yielded an ED50 of 44 mg/kg.
